Experimental findings from patent US5246932A, “Heterocyclic compounds” (Imperial Chemical Industries PLC, priority 1991, dated 1993) are described below.

By UniProt entry, the sequences of proteins in these tests, tags left out.
UniProt P47745, whole entry: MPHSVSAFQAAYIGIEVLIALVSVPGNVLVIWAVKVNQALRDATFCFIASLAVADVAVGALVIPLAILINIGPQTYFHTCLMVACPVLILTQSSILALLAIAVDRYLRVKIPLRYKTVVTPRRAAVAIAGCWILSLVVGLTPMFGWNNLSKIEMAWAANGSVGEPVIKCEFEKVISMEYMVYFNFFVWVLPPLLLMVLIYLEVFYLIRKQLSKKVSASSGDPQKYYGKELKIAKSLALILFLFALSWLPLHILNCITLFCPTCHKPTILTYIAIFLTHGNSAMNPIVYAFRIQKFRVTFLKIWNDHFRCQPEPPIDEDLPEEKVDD

This experiment addresses T1, adenosine receptor known as A1 (Cavia porcellus, UniProt P47745).
T1 construct: Atrial pairs are obtained from guinea-pigs (Dunkin Hartley strain); from tissue; host or cells: guinea-pig spontaneously beating atrial pairs (Dunkin Hartley)
Nature of the experiment: Guinea-pig Atrial Bradycardic Test. The following applies: antagonism of 2-chloroadenosine bradycardia in beating guinea-pig atrial pair; read-out: pA2 (converted). It is filed as biochemical.

With `Cn1c(=O)c2[nH]cnc2n(C)c1=O` [1,3-dimethylxanthine], the Kb was approximately 10 µM.
